1 compound from PMC4056445 (Journal of ethnopharmacology, 2011) can be followed below.

The target of this assay is PDE5 (Mus musculus, UniProt Q8CG03). The assay is described as follows: PDE5 inhibition, two-step radioactive [3H]cGMP assay. The class given is biochemical. The following applies: pure compounds; selectivity on PDE5 over PDE6.

Take `OCCN(CCO)c1nc(N2CCCCC2)c2nc(N(CCO)CCO)nc(N3CCCCC3)c2n1` [Dipyridamole, dipyridamole]: the “IC50 ratio PDE6/PDE5” value was determined as 0.16.
